Literature values in article PMC6587507, “Comparison of the metabolism of 10 chemicals in human and pig skin explants” (Journal of Applied Toxicology, 2018).

Conditions: ref Chemspider (www.chemspider.com); cited from earlier work

COc1cc(C=O)ccc1O [Vanillin]
LogP: 1.21
